Compounds with a hit are over-represented: about 1.6% of the library has one in this group of screens.
CAL PDZ FP-1 = inhibitors of human CAL PDZ peptide binding | 330,000 compounds, 0.02% hits | inhibition, % at 20 µM | Q9HD26 | purified CAL PDZ, TMR-peptide fluorescence polarization, 1 h;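 active = highest replicate inhibition of at least 40%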;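 also: plate controls were DMSO neutral control wells for no effect and unlabeled competitor peptide control wells for full effect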
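Material: tagged CAL PDZ protein CerCALP, purified; buffer or medium: sodium phosphate/NaCl buffer pH 7.4 with TCEP, IgG, Thesit; also added: fluorescent TMR peptide probe; schedule: 1 h incubation at room temperature before polarization reading; technique: fluorescence polarization from S- and P-plane intensities, G-factor corrected; control set: unlabelled peptide and DMSO controls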
CAL PDZ FP-2 = inhibitors of human CAL PDZ peptide binding; Q9HD26; purified CAL PDZ, TMR-peptide fluorescence polarization, 1 h; inhibition, % at 24.9 µM; 300,000 compounds, 0.92% hits;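 active = mean inhibition of at least 30% with at least half of replicates also reaching 30%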;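 also: 0% = DMSO neutral control and 100% = excess unlabeled competitor peptide PRC23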
ARNT TACC3 PPI = disruptors of human ARNT/TACC3 interaction | AlphaScreen His-ARNT PAS-B/GST-TACC3 binding, luminescence; TACC3 fragment carries E629A point mutation | Q9Y6A5 | inhibition, % at 9.99 µM | AID 623870 | 390,000 compounds, 0.66% hits;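 active = mean inhibition of replicates at least 50% and at least half of replicates each reaching 50%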;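 also: 0% = complete ARNT plus TACC3 wells and 100% = ARNT alone without TACC3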
Yeast UUG start = alters start codon recognition fidelity in yeast; AID 602363; activity score, % at 18.7 µM; 350,000 tested, 0.13% active; S. cerevisiae UUG-firefly luciferase reporter, luminescence/redox ratio;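 active means replicate mean at a twofold rise or more, about +100% in these data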;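 further: firefly luciferase made from a UUG start codon reports start codon fidelity; reporter light over untreated wells divided by growth signal over untreated wells; some hits fall short of that in this replicate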
PglD DTNB = PglD (C. jejuni) enzyme inhibition. inhibition, % at 12.5 µM. purified PglD enzyme, DTNB colorimetric CoA detection. 360,000 compounds, 0.098% hits. AID 602405; in the data active = inhibition above about 16%, passing the limit was not always enough
Vif imaging = blocks HIV Vif function. AID 602346. HEK293T cells, Vif self-association by quenched fluorescence, imaging, 24 h. inhibition, % at 7.49 µM. 340,000 compounds, 0.35% hits; in the data active = inhibition above about 50%, passing the limit was not always enough
Active calls of the source: *; . = not tested or not shown.

SMILES | CAL PDZ FP-1 | CAL PDZ FP-2 | ARNT TACC3 PPI | Yeast UUG start | PglD DTNB | Vif imaging
C[C@H]1CN([C@@H](C)CO)C(=O)c2cc(NS(=O)(=O)c3ccc(F)cc3)ccc2O[C@@H]1CN(C)S(=O)(=O)c1ccccc1 | . | . | 14.5 | 27.6 | 0.7 | .
C[C@H](CO)N1C[C@H](C)[C@@H](CN(C)C(=O)Nc2cccc3ccccc23)Oc2ccc(NC(=O)NC3CCCCC3)cc2CC1=O | . | . | -0.4 | -1.6 | -7.6 | .
Cn1c(=N)n(CC(=O)c2ccc(Br)s2)c2ccccc21 | . | -6.3 | -9.6 | -19.4 | -0.2 | 7.3
N=c1n(CC(=O)c2ccc(Br)s2)c2ccccc2n1Cc1ccccc1 | -1.8 | 38.3* | 8.2 | 12.2 | -2.5 | -0.2
CN1CCCc2cc(C=O)ccc21 | -0.8 | -2.7 | -1.7 | -8.9 | 3.4 | -5.2
CCCN1CCCc2cc(CN)ccc21 | -1.0 | -4.9 | 31.9* | -13.8 | -4.5 | 29.2
CC(C)C(=O)NCCc1nc(-c2ccccc2Cl)no1 | -3.0 | -3.2 | -6.8 | -17.6 | 0.1 | 83.3*
O=C(CN1CCN(c2ccccc2)CC1)N1CCc2ccccc21 | -1.5 | -3.6 | 2.1 | -12.6 | 4.3 | -0.5
O=C(CN1CCN(c2ccc(O)cc2)CC1)N1CCc2ccccc21 | 0.2 | 49.3* | . | -14.3 | -5.1 | 26.0
C[C@@H]1CN([C@H](C)CO)C(=O)Cc2cc(N(C)C)ccc2O[C@@H]1CN(C)S(=O)(=O)c1cccs1 | . | . | -0.7 | -11.4 | -0.6 | .
C[C@@H]1CN([C@H](C)CO)C(=O)c2cccc(NC(=O)C3CC3)c2O[C@@H]1CN(C)Cc1ccc(C(=O)O)cc1 | . | . | -3.7 | -2.9 | 5.4 | .
COC(=O)c1ccc(S(=O)(=O)NCCc2ccccc2OC)n1C | -1.3 | 69.0* | -2.6 | . | . | -10.3
COc1ccccc1CCNS(=O)(=O)c1cn(C)c(=O)n(C)c1=O | -1.3 | -0.1 | -33.7 | . | . | -6.1
Cc1ccccc1Nc1c(C)c(C)nc2ncnn12 | . | -2.3 | 4.3 | -0.3 | -5.1 | 142.7*
C[C@@H]1CN([C@H](C)CO)C(=O)c2cccc(NS(=O)(=O)c3cccs3)c2O[C@H]1CN(C)S(=O)(=O)c1ccc(F)cc1 | . | . | -14.0 | -0.1 | 0.3 | .
COc1ccc(NC(=O)c2c(NC(=O)CNCc3ccco3)sc3c2CCC3)cc1 | . | -1.9 | -8.9 | -12.4 | 1.4 | 2.2
CCOc1ccc(NC(=O)c2c(NC(=O)CNCCN3CCOCC3)sc3c2CCC3)cc1 | -2.7 | -1.6 | 63.9* | -18.4 | -0.3 | -5.9
CN(C(=O)COC(=O)c1ccc(Cl)cc1N)C1CCCCC1 | -0.1 | 33.8* | 1.6 | . | . | -7.3
COCCCn1c(=O)/c(=C\c2ccccc2OC(F)F)s/c1=C(/C#N)C(N)=O | 0.2 | -1.6 | 17.6 | -8.1 | 5.1 | 139.3*
CCOC(=O)N(C)C[C@@H]1OCc2cnnn2CCCC(=O)N([C@@H](C)CO)C[C@H]1C | . | . | -4.4 | -4.8 | -0.9 | .
C=CCN1C(=O)/C(=C2/Sc3ccc(OC)cc3N2C)SC1=NCc1ccccc1 | -1.1 | . | 4.5 | -19.2 | -0.9 | 39.0
COc1ccc2c(c1)N(C)/C(=C1/SC(=NCc3ccccc3)N(c3ccccc3)C1=O)S2 | -0.4 | -1.6 | 18.3 | . | . | 170.3*
Cc1ccc(Nc2nc(N)nc(CSc3nnc(-c4ccncc4)o3)n2)cc1 | -4.6 | -2.2 | 23.2 | -8.3 | -1.3 | 83.0*
Cc1ccc(Nc2nc(N)nc(CSc3ncccn3)n2)cc1 | -1.8 | -1.3 | -3.9 | -23.5 | -7.6 | -6.6

Reprinted at random: two entries already listed, in no set order.
SMILES | CAL PDZ FP-1 | CAL PDZ FP-2 | ARNT TACC3 PPI | Yeast UUG start | PglD DTNB | Vif imaging
CN(C(=O)COC(=O)c1ccc(Cl)cc1N)C1CCCCC1 | -0.1 | 33.8* | 1.6 | . | . | -7.3
COc1ccccc1CCNS(=O)(=O)c1cn(C)c(=O)n(C)c1=O | -1.3 | -0.1 | -33.7 | . | . | -6.1

One compound at a time, from the list above. Order of screens: CAL PDZ FP-1, CAL PDZ FP-2, ARNT TACC3 PPI, Yeast UUG start, PglD DTNB, Vif imaging
`CN(C(=O)COC(=O)c1ccc(Cl)cc1N)C1CCCCC1` across the screens: -0.1, 33.8*, 1.6, ., ., -7.3
`C[C@@H]1CN([C@H](C)CO)C(=O)c2cccc(NS(=O)(=O)c3cccs3)c2O[C@H]1CN(C)S(=O)(=O)c1ccc(F)cc1` across the screens: ., ., -14.0, -0.1, 0.3, .

Additional entries
SMILES | CAL PDZ FP-1 | CAL PDZ FP-2 | ARNT TACC3 PPI | Yeast UUG start | PglD DTNB | Vif imaging
COc1ccc2c(c1)c(=O)oc1cc(OCC(=O)NCC3CCC(C(=O)O)CC3)ccc12 (stereo not drawn) | -1.4 | -2.3 | -6.1 | -1.7 | -1.9 | 55.1*
O=C(Oc1cccc2cccnc12)c1ccco1 | . | -2.1 | 53.9* | -7.2 | 3.5 | -0.9
CCN1CCN(c2ccc(NC(=O)c3ccc([N+](=O)[O-])o3)cc2Cl)CC1 | -0.7 | 8.6 | -0.2 | . | . | 30.7
CC(=O)N1CCN(c2ccc(NC(=O)c3ccc([N+](=O)[O-])o3)cc2Cl)CC1 | -0.7 | 2.6 | -2.3 | -12.4 | -0.6 | 57.4*
CCC(=O)N1CCN(c2ccc(NC(=O)c3ccc([N+](=O)[O-])o3)cc2Cl)CC1 | -0.3 | 0.8 | 1.6 | . | . | 65.6*
CN(C)CCNC(=O)C(=O)NCC1OCCN1S(=O)(=O)c1ccc(F)cc1 (stereo not drawn) | . | . | . | -22.6 | -2.7 | 0.1
